In this experiment the target is Amyloid-beta precursor protein (Homo sapiens, UniProt P05067). The experiment in a line: Inhibition of self-induced amyloid beta (1 to 42) (unknown origin) aggregation at 20 uM incubated for 24 hrs by ThT fluorescence assay relative to control.

The chains behind the UniProt entries cited, without tags or fusion partners.
UniProt P05067, whole entry: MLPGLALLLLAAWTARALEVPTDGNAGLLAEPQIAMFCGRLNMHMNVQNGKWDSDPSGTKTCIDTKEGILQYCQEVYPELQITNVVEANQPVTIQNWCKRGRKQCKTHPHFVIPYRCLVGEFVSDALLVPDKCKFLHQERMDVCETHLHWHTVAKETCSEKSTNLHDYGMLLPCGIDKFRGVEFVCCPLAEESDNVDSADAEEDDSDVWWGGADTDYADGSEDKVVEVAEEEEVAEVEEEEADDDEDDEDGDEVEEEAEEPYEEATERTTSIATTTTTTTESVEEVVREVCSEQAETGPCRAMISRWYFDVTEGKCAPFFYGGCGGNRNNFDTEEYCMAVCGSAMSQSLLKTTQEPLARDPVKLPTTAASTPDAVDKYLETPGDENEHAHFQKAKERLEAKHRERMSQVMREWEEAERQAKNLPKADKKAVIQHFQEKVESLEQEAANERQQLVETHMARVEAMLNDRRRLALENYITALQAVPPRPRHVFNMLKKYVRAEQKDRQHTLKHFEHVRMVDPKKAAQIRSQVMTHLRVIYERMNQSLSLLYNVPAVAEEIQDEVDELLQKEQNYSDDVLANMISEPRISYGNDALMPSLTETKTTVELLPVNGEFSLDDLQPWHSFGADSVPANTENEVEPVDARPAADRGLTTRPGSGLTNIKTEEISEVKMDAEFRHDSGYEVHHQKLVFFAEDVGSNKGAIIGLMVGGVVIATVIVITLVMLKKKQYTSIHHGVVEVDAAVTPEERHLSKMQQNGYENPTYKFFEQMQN

The term inhibition denotes how much of the control response was suppressed.

On to `C#CCN(C)CCCn1ccc(=O)c(O)c1C`, for which the inhibition was 80.1%.

The values are drawn from ChEMBL document CHEMBL4706610, “Hydroxypyridinone-Based Iron Chelators with Broad-Ranging Biological Activities” (J Med Chem, 2020).
